PubChem BioAssay AID602363 (Broad Institute, 2012)
Among all 350,000 compounds or so, about 450 (0.13%) were called active. This is one part of a sample in which actives are shown more often than they occur.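 Rule for the calls: active = replicate mean at a twofold rise or more (about +100% in these data); inactive = the rest.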

assay: modulators of yeast start codon fidelity, primary screen, whole organism, S. cerevisiae, single point, plate reader (AID 602363);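 note: firefly luciferase made from a UUG start codon reports start codon fidelity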; conditions: S. cerevisiae UUG-firefly luciferase reporter, luminescence/redox ratio; at 18.7 µM; hits give high values

Activity score, inactive:
O=C(C[C@@H]1C=C[C@H](NC(=O)CCN2CCCCC2)[C@H](CO)O1)NCc1ccc(Cl)c(Cl)c1 -10.1%
Cc1ccc(NC(=O)c2ccco2)cc1 13.9%
O=C(NNC(=O)c1ccco1)Nc1ccccc1 -11.9%
CC(C)NC(=O)N1CCCCN2[C@H](CO)[C@H](c3ccc(C#C[C@H](C)O)cc3)[C@H]2C1 4.66%
Cc1noc(C)c1S(=O)(=O)N(C)C[C@@H]1OCCCC[C@H](C)Oc2ccc(NC(=O)Nc3ccc4c(c3)OCO4)cc2C(=O)N([C@H](C)CO)C[C@@H]1C -17.6%
O=C(Nc1ccc(Cl)cc1)N1C[C@@H]2[C@H](c3ccccc31)[C@@H](CO)N2C(=O)c1cccnc1 -17%
CC(C)NC(=O)Nc1ccc2c(c1)C(=O)N([C@@H](C)CO)C[C@H](C)[C@@H](CN(C)C(=O)Nc1ccc(F)cc1)OCCCC[C@H](C)O2 -6.2%
C[C@H](CO)N1C[C@H](C)[C@H](CN(C)Cc2ccc3c(c2)OCO3)Oc2c(cccc2N(C)C)C1=O -9.31%
COc1ccc(S(=O)(=O)N(C)C[C@H]2OCCCC[C@@H](C)Oc3ccc(NC(=O)CCC(F)(F)F)cc3C(=O)N([C@@H](C)CO)C[C@H]2C)cc1 1.93%
C=CCOC(=O)[C@H]1[C@@H]2C(=O)O[C@@H](c3ccccc3)[C@@H](c3ccccc3)N2[C@@H](c2ccc(OCCOC(=O)[C@H]3C[C@H]4C(=O)NCC(=O)N4[C@H]3c3ccc(O)cc3)cc2)[C@]12C(=O)Nc1ccccc12 -7.32%
COc1ccccc1-c1cnc2c(c1)C(=O)N([C@H](C)CO)C[C@@H](C)[C@@H](CN(C)CC1CCCC1)O2 -0.682%
C[C@H](CO)N1C[C@H](C)[C@H](CN(C)C(=O)c2ccccn2)Oc2ncc(-c3ccccc3F)cc2C1=O 9.71%
Cc1noc(C)c1NC(=O)N(C)C[C@@H]1Oc2ccc(NS(=O)(=O)c3ccc(Cl)cc3)cc2C(=O)N([C@@H](C)CO)C[C@H]1C 9.56%
C[C@H](CO)N1C[C@H](C)[C@@H](CN(C)Cc2ccc(Cl)c(Cl)c2)Oc2c(NC(=O)C3CCCCC3)cccc2C1=O 0.419%
CO[C@H]1CN(C)C(=O)c2cc(NS(C)(=O)=O)ccc2OC[C@H](C)N(C(=O)C2CCCC2)C[C@H]1C -1.38%
C[C@@H]1CN([C@H](C)CO)C(=O)Cc2cc(NS(=O)(=O)c3ccc(Cl)cc3)ccc2O[C@@H]1CN(C)S(=O)(=O)c1ccc(Cl)cc1 -17.9%
Cc1ccc(S(=O)(=O)N(C)C[C@@H]2Oc3ccc(NS(=O)(=O)c4c(C)noc4C)cc3CC(=O)N([C@H](C)CO)C[C@H]2C)cc1 12.2%
CCCNC(=O)C[C@H]1CC[C@@H]2[C@H](COc3ccc(NC(=O)c4ccc(OC)cc4)cc3C(=O)N2C)O1 4.65%
C[C@@H](NC(=O)C[C@H]1C[C@H]2c3cc(NC(=O)Nc4ccccc4F)ccc3O[C@H]2[C@@H](CO)O1)c1ccccc1 -2.05%
CCCNC(=O)N1C[C@@H](O)COC[C@H]2O[C@@H](CC(=O)NCCCN3CCOCC3)CC[C@@H]21 -4.24%
C[C@@H]1CN([C@@H](C)CO)C(=O)c2cc(NS(=O)(=O)c3cccs3)ccc2O[C@@H]1CN(C)S(=O)(=O)c1ccc(F)cc1 2.8%
C[C@@H]1CCCCO[C@@H](CN(C)S(C)(=O)=O)[C@H](C)CN([C@@H](C)CO)C(=O)c2cc(NC(=O)Nc3ccc4c(c3)OCO4)ccc2O1 12.2%
C[C@H]1CN([C@@H](C)CO)C(=O)c2cc(-c3ccccc3F)cnc2O[C@@H]1CN(C)C(=O)C1CCCCC1 12.9%
CO[C@@H]1CN(C)C(=O)c2cc(NC(=O)NC3CCCCC3)ccc2OC[C@H](C)N(CC2CC2)C[C@H]1C -4.52%
CC(=O)N(C)C[C@H]1Oc2cc(C#CC3CC3)ccc2S(=O)(=O)N([C@H](C)CO)C[C@@H]1C 22%
COc1ccccc1C#Cc1ccc([C@H]2[C@H](CO)N3CCCCN(C(=O)C4CCC4)C[C@@H]23)cc1 29.8%
Cc1ccccc1-c1cnc2c(c1)C(=O)N([C@@H](C)CO)C[C@@H](C)[C@@H](CN(C)CC1CCOCC1)O2 -10.7%
C/C=C/c1ccc2c(c1)O[C@@H](CN(C)C(=O)NC1CCCC1)[C@@H](C)CN([C@H](C)CO)S2(=O)=O 12.5%
C[C@H]1CN([C@@H](C)CO)S(=O)(=O)c2ccc(C#CCN(C)C)cc2O[C@H]1CN(C)C(=O)CN(C)C 28.3%
C[C@@H]1CN([C@@H](C)CO)S(=O)(=O)c2ccc(C#C[C@@H](C)O)cc2O[C@@H]1CN(C)C(=O)CN(C)C -1.41%
C[C@@H]1CN([C@@H](C)CO)S(=O)(=O)c2ccc(C#Cc3ccc(F)cc3)cc2O[C@@H]1CN(C)CC1CC1 11.3%
Cc1ccc(S(=O)(=O)N(C)C[C@@H]2Oc3ccc(NC(=O)NC4CCCCC4)cc3C(=O)N([C@@H](C)CO)C[C@H]2C)cc1 -6.25%
C[C@@H]1CN([C@@H](C)CO)S(=O)(=O)c2ccc(C#Cc3ccccc3)cc2O[C@@H]1CN(C)C(=O)C1CC1 -28.6%
COCC#Cc1cnc2c(c1)C(=O)N([C@@H](C)CO)C[C@@H](C)[C@@H](CN(C)C(=O)c1cccnc1)O2 -8.09%
CN1c2ccc(Br)cc2[C@@H]2[C@@H](CCN2C(=O)C2CCCCC2)[C@H]1CO 25.4%
C[C@H](CO)N1C[C@H](C)[C@H](CN(C)C(=O)Nc2cccc3ccccc23)Oc2ncc(C#Cc3ccccc3)cc2C1=O -10%
Cc1ccccc1S(=O)(=O)N1[C@H](C#N)[C@H](c2ccccc2)[C@H]1CO -7.59%
C[C@H](CO)N1C[C@H](C)[C@H](CN(C)S(=O)(=O)c2cccs2)Oc2ccc(NS(=O)(=O)c3ccc(Cl)cc3)cc2CC1=O 3.99%
COc1ccc(CN(C)C[C@H]2OCCCC[C@H](C)Oc3ccc(NC(=O)Nc4ccc5c(c4)OCO5)cc3C(=O)N([C@H](C)CO)C[C@@H]2C)cc1 0.433%
C[C@H](CO)N1C[C@H](C)[C@H](CN(C)S(=O)(=O)c2cccs2)Oc2c(NC(=O)Nc3ccc4c(c3)OCO4)cccc2C1=O 6.62%
O=C(C[C@H]1C[C@H]2c3cc(NC(=O)NC4CCCC4)ccc3O[C@H]2[C@H](CO)O1)NCCc1ccccc1 -18.1%
C[C@@H]1CN([C@H](C)CO)C(=O)c2cc(NS(=O)(=O)c3ccccc3)ccc2O[C@@H](C)CCCCO[C@H]1CN(C)C(=O)C1CCCCC1 18.3%
CCC(=O)N1[C@@H](CO)[C@H](c2ccc(-c3cccc(F)c3)cc2)[C@@H]1CNC(C)=O 2%
C[C@H](CO)N1C[C@H](C)[C@@H](CN(C)S(=O)(=O)c2cccs2)Oc2ccc(NC(=O)Nc3cccc4ccccc34)cc2CC1=O -2.1%
C[C@@H]1CN([C@H](C)CO)C(=O)c2cccc(NC(=O)Nc3ccccc3)c2O[C@H]1CN(C)S(C)(=O)=O 1.91%
C[C@@H]1CN([C@H](C)CO)C(=O)c2cc(NS(=O)(=O)c3ccc(F)cc3)ccc2O[C@H]1CN(C)C(=O)Nc1cccc2ccccc12 -5.16%
CCC(=O)N(C)C[C@H]1Oc2cc(C#CC3CCCC3)ccc2S(=O)(=O)N([C@H](C)CO)C[C@@H]1C -3%
COc1ccccc1-c1cn(CC[C@H]2CC[C@@H](NC(=O)CCN3CCCCC3)[C@@H](CO)O2)nn1 7.11%
O=C(Cc1ccccn1)NCC[C@H]1CC[C@H](NS(=O)(=O)c2ccccc2)[C@@H](CO)O1 7.13%
COc1cccc(S(=O)(=O)Nc2ccc3c(c2)C(=O)N(C)C[C@@H](OC)[C@H](C)CN(C(=O)Cc2cccnc2)[C@H](C)CO3)c1 -4.59%
O=C1N=C(N2CCOCC2)S/C1=C\C=C/c1ccccc1 -1.22%
CCOc1cc(/C=C2\SC(N3CCCCC3)=NC2=O)ccc1O 6.38%
Cc1cc(C)c(S(=O)(=O)Nc2c(C)n(C)n(-c3ccccc3)c2=O)cc1[N+](=O)[O-] 3.79%
Cc1c(NC(=O)c2c([N+](=O)[O-])cnn2C)c(=O)n(-c2ccccc2)n1C -20.3%
O=C(NC1CCCCC1)C1CCCN(S(=O)(=O)c2cccs2)C1 (configuration not stated) -10.8%
CCc1ccc(N(C(=O)c2csnn2)C(C(=O)NC2CCCCC2)c2ccncc2)cc1 (configuration not stated) -16.9%

Activity score, active:
O=C(Nc1ccc(Oc2ccccc2)cc1)c1ccco1 570%
C[C@@H]1CN([C@@H](C)CO)S(=O)(=O)c2ccc(C#Cc3ccc(F)cc3)cc2O[C@H]1CN(C)C(=O)NC1CCCC1 273%
CC(C)C#Cc1ccc2c(c1)O[C@@H](CN(C)C(=O)CN(C)C)[C@@H](C)CN([C@H](C)CO)S2(=O)=O 61.3%
O=C1N=C(N2CCc3ccccc3C2)S/C1=C\c1ccc(O)cc1 376%
Cc1c(Nc2cc(N3CCCC(C)C3)c3nonc3c2[N+](=O)[O-])c(=O)n(-c2ccccc2)n1C (configuration not stated) 273%
CC1CCCN(S(=O)(=O)c2ccc(N(C(=O)c3cnccn3)C(C(=O)NC3CCCCC3)c3cccs3)cc2)C1 (configuration not stated) 130%
